# Measured values taken from US20240316042A1 (AbbVie Inc., priority 2023, published 2024).
# Tests used:
# [1] = test system: pediatric subjects with severe atopic dermatitis; experiment: Phase 1 open-label study in pediatric subjects with severe atopic dermatitis: efficacy (vIGA-AD, EASI); assay type: in vivo, human
# [2] = test system: pediatric patients with pcJIA; experiment: Phase 1 open-label study in pediatric pcJIA patients: efficacy (JIA ACR, JADAS-27, C-HAQ);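 further: values come from an interim analysis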
structure (smiles),measurement,setting,value
"CC[C@@H]1CN(C(=O)NCC(F)(F)F)C[C@@H]1c1cnc2cnc3[nH]ccc3n12 [upadacitinib, (3S,4R)-3-ethyl-4-(3H-imidazo[1,2-a]pyrrolo[2,3-e]pyrazin-8-yl)-N-(2,2,2-trifluoroethyl)pyrrolidine-1-carboxamide]",EASI 75 response,"[1]; Week 12, 7 subjects of Cohorts 3 and 4 on revised dosing scheme from study entry",all subjects achieved an EASI 75 response
same,"Percent Change in EASI, Mean","[1]; Week 12, Age 2 to <6 years",−82.0%
same,"Change in EASI, Mean","[1]; Week 12, Age 6 to <12 years",−25.0
same,"Percent Change in EASI, Mean","[1]; Week 12, Age 6 to <12 years",−78.0%
same,"CRP, Change from Baseline Median (Min, Max)","[2]; Week 12, Overall","−0.390 (−77.05, 17.20)"
same,"ESR, Change from Baseline Mean ([…]% CI)","[2]; Week 12, Overall","−7.3 (−11.7, −2.9)"
same,"Total Number of Active Joints, Change from Baseline Mean ([…]% CI)","[2]; Week 12, Overall","−9.4 (−10.9, −7.8)"
same,"Total Number of Active Joints, Change from Baseline Mean ([…]% CI)","[2]; Week 12, age 2 to <6 years","−7.0 (−8.8, −5.2)"
same,"CRP, Change from Baseline Median (Min, Max)","[2]; Week 12, age 6 to <12 years","−0.820 (−16.70, 5.50)"
same,"ESR, Change from Baseline Mean ([…]% CI)","[2]; Week 12, age 6 to <12 years","−9.9 (−17.3, −2.5)"
same,"CRP, Change from Baseline Median (Min, Max)","[2]; Week 12, age 12 to <18 years","−0.150 (−16.49, 17.20)"
same,"ESR, Change from Baseline Mean ([…]% CI)","[2]; Week 12, age 12 to <18 years","−0.3 (−5.8, 5.3)"
same,"Patient/Parent Global Assessment of Overall Well Being (VAS), Change from Baseline Mean ([…]% CI)","[2]; Week 12, age 12 to <18 years","−19.6 (−28.3, −10.8)"
